Columns and labels:
[1] = target: T1, human RACK1 (receptor of activated kinase 1), 6xHis-tagged (human, UniProt P63244 1-317); experiment: AUC; sedimentation equilibrium, 4 °C, 12,000, 15,000 and 18,000 rpm; both proteins at 300 ug/mL (~8.0 uM) in 20 mM Tris-HCl pH 7.5, 500 mM NaCl, 3% glycerol; 1:1 hetero-association model (SedPhat); details: both partners purified
[2] = target: T1, human RACK1 (receptor of activated …); experiment: other fluorescence titration; intrinsic tryptophan fluorescence (excitation 295 nm) of 1 uM RACK1 titrated with Ki-1/57(122-413); 25 °C, 20 mM Tris-HCl pH 7.5; difference at 334 nm from 0.3 to 1.4 uM fitted with a modified Hill equation; details: both partners purified

B1: Ki-1/57(122-413) (domain or fragment)
chain: PRRGEQQGWNDSRGPEGMLERAERRSYREYRPYETERQADFTAEKFPDEKPGDRFDRDRPLRGRGGPRGGMRGRGRGGPGNRVFDAFDQRGKREFERYGGNDKIAVRTEDNMGGCGVRTWGSGKDTSDVEPTAPMEEPTVVEESQGTPEEESPAKVPELEVEEETQVQEMTLDEWKNLQEQTRPKPEFNIRKPESTVPSKAVVIHKSKYRDDMVKDDYEDDSHVFRKPANDITSQLEINFGNLPRPGRGARGGTRGGRGRIRRAENYGPRAEVVMQDVAPNPDDPEDFPALS
notes: recombinant protein 37.3 kDa; source: bacterial expression (pPROEx), purified in two steps as described previously
In the case of B1, the Ka [1] is reported as ~1.5e+06 M⁻¹, the Kd [1] is reported as 0.7 ± 0.1 µM and the “stoichiometry N” value [1] is reported as 1. For the same binder, the Kd [2] was ~0.6 µM.

Reference: paper PMC2896345 (BMC Structural Biology, 2010)
